# According to article PMC8624105 (Viruses, 2021):
# Columns and labels:
# Test in all cases: holdup assay
# Type in all cases: binding, human
# Settings in all cases: PDZ about 4 μM; two independent experiments
# [1] = system: LDB3 PDZ1
# [2] = system: MPP1 PDZ1
# [3] = system: RIMS1 PDZ1
# [4] = system: DLG5 PDZ2
# [5] = system: MAST4 PDZ1
# [6] = system: GRIP2 PDZ2
# [7] = system: SCRIB PDZ4
# [8] = system: PDLIM2 PDZ1
# [9] = system: SCRIB PDZ2
# [10] = system: GIPC2 PDZ1
# [11] = system: InaDl PDZ4
# [12] = system: PDZD2 PDZ1
substance,measurement,setting,value
Biotin-(PEG3)-GFQNTDDVQTSF [ACE2 PBM peptide],BI (binding intensity),[1],0.02
same,BI (binding intensity),[2],-0.07
same,BI (binding intensity),[3],-0.02
same,BI (binding intensity),[4],-0.03
same,BI (binding intensity),[5],0.00
same,BI (binding intensity),[6],0.02
same,BI (binding intensity),[7],-0.02
same,BI (binding intensity),[8],-0.05
same,BI (binding intensity),[9],-0.03
same,BI (binding intensity),[10],-0.05
same,BI (binding intensity),[11],-0.01
same,BI (binding intensity),[12],-0.09
